Experimental data from patent US20230103444A1 (The Regents of the University of Colorado, a Body Corporate, priority 2020, published 2023).

Amino acid sequences for entries named in this document (tags omitted). Residues count along the entry.
UniProt Q86WJ1, 16-611 limits assumed: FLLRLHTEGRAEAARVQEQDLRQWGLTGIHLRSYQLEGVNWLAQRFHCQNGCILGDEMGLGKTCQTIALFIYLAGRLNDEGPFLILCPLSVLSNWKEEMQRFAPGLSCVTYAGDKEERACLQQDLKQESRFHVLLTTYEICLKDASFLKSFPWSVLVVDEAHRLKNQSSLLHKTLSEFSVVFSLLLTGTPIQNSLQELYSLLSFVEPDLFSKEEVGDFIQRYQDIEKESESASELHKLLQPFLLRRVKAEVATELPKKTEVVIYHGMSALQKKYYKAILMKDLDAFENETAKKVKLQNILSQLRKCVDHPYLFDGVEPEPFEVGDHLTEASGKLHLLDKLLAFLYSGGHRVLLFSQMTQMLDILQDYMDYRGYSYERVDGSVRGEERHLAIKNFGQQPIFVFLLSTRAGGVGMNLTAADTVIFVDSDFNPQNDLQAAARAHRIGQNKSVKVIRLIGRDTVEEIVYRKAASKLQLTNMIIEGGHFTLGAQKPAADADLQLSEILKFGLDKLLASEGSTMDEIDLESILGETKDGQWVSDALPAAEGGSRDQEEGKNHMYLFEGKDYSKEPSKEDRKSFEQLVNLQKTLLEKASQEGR

How the values were obtained:
cat-CHD1L ATPase = cat-CHD1L ATPase (Homo sapiens, UniProt Q86WJ1); test: CHD1L ATPase assay with recombinant catalytic domain (cat-CHD1L); settings: for IC50: read-out: cat-CHD1L inhibition IC50, Table 6; for CHD1L enzyme inhibition, in words: recombinant cat-CHD1L
[1] = Mouse liver microsome stability; settings: Table 6
[2] = Human microsomal stability; format: in vitro ADME; settings: Table 6
SW620 tumor organoids = test: Tumor organoid cytotoxicity (CellTiter-Glo 3D); format: cell-based, human
HCT116 tumor organoids = test: Tumor organoid cytotoxicity (CellTiter-Glo 3D); settings: read-out: 3 D Cytotoxicity 72 hr IC50 (μM) HCT116; Table 6
HCT116 M-Phenotype cells = test: Clonogenic assay, continuous treatment; settings: read-out: colony formation IC50
SW620 M-Phenotype cells = test: Clonogenic assay, continuous treatment; settings: read-out: colony formation IC50
[3] = read-out: 3 D Cytotoxicity 72 hr IC50 (μM) SW620, Table 6

| Compound | IC50 (cat-CHD1L ATPase) | CHD1L enzyme inhibition, in words (cat-CHD1L ATPase) | Microsomal stability Mouse t1/2 [1] | Microsomal stability Human t1/2 [2] | IC50 (SW620 tumor organoids; [3]) | IC50 (HCT116 tumor organoids) | CHD1L enzyme inhibition, in words (cat-CHD1L ATPase; listed as 75) | IC50 (HCT116 M-Phenotype cells) | IC50 (SW620 M-Phenotype cells) | IC50 (SW620 tumor organoids; read-out: Tumor Organoid Cytotoxicity IC50 (μM) SW620, single agent, Table 4A, updated experimental, rounded to one decimal) |
| --- | --- | --- | --- | --- | --- | --- | --- | --- | --- | --- |
| Cc1cc(Nc2ccc(NC(=O)Cc3ccc[nH]3)cc2)nc(N2CCCC2)n1 | 2100 nM | good enzyme inhibition | 96.62 min | 199.01 min | 6.1 µM | 7.6 µM | – | – | – | – |
| Cc1cc(Nc2ccc(NC(=O)Cc3cc(Cl)nc4ccccc34)cc2)nc(N2CCCC2)n1 | 1000 nM | more potent CHD1L inhibitors | – | – | 2.4 µM | – | good enzyme inhibition | 200 nM | 300 nM | 2.4 µM |

Like-named read-outs stand apart in the source and are kept apart here.
